Reference: patent US20110263650A1 (priority 2007, published 2011)

Tests used:
[1] = test system: KB-V1 multidrug-resistant subclone of KB-3-1 (DSMZ ACC 149)
[2] = test system: KB-V1 multidrug-resistant subclone of KB-3-1 (DSMZ ACC 149); assay: cells; details: Homo sapiens
[3] = KB-V1, read-out: IC50 KB-V1 w/o verapamil
[4] = KB-V1, read-out: IC50 KB-V1 w/verapamil

SMILES	Factor: quotient of the IC50 values of KB-V1 without verapamil and in presence of verapamil [1]	IC50 [2, 3] [ng/mL]	IC50 [2, 4] [ng/mL]	Factor: quotient of the IC50 values of KB-V1 without verapamil and in presence of verapamil ([1]; KB-V1)
CC[C@H](C)[C@H](NC(=O)[C@H]1CCCCN1C)C(=O)N(COC(=O)CC(C)C)[C@H](C[C@@H](OC(C)=O)c1nc(C(=O)NC)cs1)C(C)C [Analogue 4, 3-methyl-butyric acid ({1-[2-acetoxy-2-(4-methylcarbamoyl-thiazol-2-yl) -ethyl]-2-methyl-propyl}-{3-methyl-2-[(1-methyl-piperidine-2-carbonyl)-amino]pentanoyl}-amino)-methyl ester]	61	11 (≈ 16.9 nM)	0.18 (≈ 0.276 nM)	–
CC[C@H](C)[C@H](NC(=O)[C@H]1CCCCN1C)C(=O)N(COC(=O)CC(C)C)[C@H](C[C@@H](OC(C)=O)c1nc(C(=O)N[C@@H](Cc2ccccc2)C[C@H](C)C(=O)O)cs1)C(C)C [Analogue 1, Tubulysin D, reference compound]	–	–	–	9
CC[C@H](C)[C@H](NC(=O)[C@H]1CCCCN1C)C(=O)N(C)[C@H](C[C@@H](OC(C)=O)c1nc(C(=O)N[C@@H](Cc2ccccc2)C[C@H](C)C(=O)O)cs1)C(C)C (stereo in doubt) [Analogue 10, 4-({2-[1-Acetoxy-4-methyl-3-(methyl-{3-methyl-2-[(1-methylpiperidine-2-carbonyl)-amino]-pentanoyl}-amino)-pentyl]-thiazole-4-carbonyl}-amino)-2-methyl-5-phenyl-pentanoic acid]	170	3.9 (≈ 5.36 nM)	0.023 (≈ 0.0316 nM)	–
CC[C@H](C)[C@H](N=[N+]=[N-])C(=O)N(COC(=O)CC(C)C)[C@H](C[C@@H](OC(C)=O)c1nc(C(=O)N[C@@H](Cc2ccccc2)C[C@H](C)C(=O)O)cs1)C(C)C [Analogue 8, 4-[(2-{1-acetoxy-3-[(2-azido-3-metlzyl-pentanoyl)-(3-methylbutyryloxymethyl)-amino]-4-methyl-pentyl}-thiazole-4-carbonyl)-amino]-2-methyl-5-phenyl-pentanoic acid]	129	150 (≈ 206 nM)	1.16 (≈ 1.59 nM)	–
CC[C@H](C)[C@H](NC(=O)[C@H]1CCCCN1C)C(=O)N(COC(=O)CC(C)C)[C@H](C[C@@H](OC(C)=O)c1nc(C(=O)NCCc2ccccc2)cs1)C(C)C [Analogue 2, 3-methyl-butyric acid ({1-[2-acetoxy-2-(4-phenethylcarbamoylthiazol-2-yl)-ethyl]-2-methyl-propyl}-{3-methyl-2-[(1-methyl-piperidine-2-carbonyl)-amino]-pentanoyl}-amino)-methyl ester]	65	13 (≈ 17.5 nM)	0.2 (≈ 0.27 nM)	–

In brackets after ≈: the same amount, converted by molar mass. Read-outs that look alike come from different tables or passages of the source.
